Assay results as given in ChEMBL document CHEMBL1765051, “Crystal structure of tert-butyldimethylsilyl-spiroaminooxathioledioxide-thymine (TSAO-T) in complex with HIV-1 reverse transcriptase (RT) redefines the elastic limits of the non-nucleoside inhibitor-binding pocket” (J Med Chem, 2011).

Target: Human immunodeficiency virus type 1 reverse transcriptase (Human immunodeficiency virus 1, UniProt Q72547)
Experiment: Inhibition of wild type HIV-1 reverse transcriptase-mediated polymerization reaction after 30 mins
How it was run: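 Wild-type RT added to start the reaction with poly(rC)/oligo(dG) (0.1 mM) and 2.8 μM [3H]dGTP (2 μCi/assay). Buffer: 50 mM Tris-HCl pH 7.8, 5 mM DTT, 300 mM glutathione, 0.5 mM EDTA, 150 mM KCl, 5 mM MgCl2, BSA, 0.06% Triton X-100. Incubated 30 min at 37°C, then TCA-precipitated. Acid-insoluble radioactivity counted. IC50 is 50% polymerization inhibition, mean ± SD of ≥2 independent experiments.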

Structure (SMILES): Cc1cn([C@@H]2O[C@H](CO[Si](C)(C)C(C)(C)C)[C@@]3(OS(=O)(=O)C=C3N)[C@H]2O[Si](C)(C)C(C)(C)C)c(=O)[nH]c1=O
- pIC50: 5.92

pIC50: −log10 of the molar value.
